Experimental data as given in patent US20080207488A1, “Method for Detecting Peptides Comprising a Cross-B Structure” (priority 2005, published 2008).

The chains behind the UniProt entries cited, without tags or fusion partners. Residues count along the entry.
UniProt P00750, 36-562: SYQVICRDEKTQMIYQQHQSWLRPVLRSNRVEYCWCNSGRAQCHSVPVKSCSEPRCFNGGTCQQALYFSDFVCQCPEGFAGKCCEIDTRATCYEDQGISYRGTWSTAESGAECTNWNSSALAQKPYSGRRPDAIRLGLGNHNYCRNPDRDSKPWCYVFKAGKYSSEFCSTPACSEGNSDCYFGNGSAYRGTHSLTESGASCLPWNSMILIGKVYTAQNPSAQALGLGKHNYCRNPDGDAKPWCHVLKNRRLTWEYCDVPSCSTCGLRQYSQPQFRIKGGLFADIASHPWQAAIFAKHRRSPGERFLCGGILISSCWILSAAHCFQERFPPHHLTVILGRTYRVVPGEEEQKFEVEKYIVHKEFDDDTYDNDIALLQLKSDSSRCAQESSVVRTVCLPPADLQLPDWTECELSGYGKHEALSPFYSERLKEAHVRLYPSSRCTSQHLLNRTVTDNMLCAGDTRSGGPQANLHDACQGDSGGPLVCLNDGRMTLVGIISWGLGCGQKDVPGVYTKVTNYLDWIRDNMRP

Columns and labels:
tPA = target: T1, tPA (Homo sapiens, UniProt P00750); assay: Plasminogen-activation assay (tPA-mediated Plg to Pls, S-2251); assay type: biochemical; details: 100 μg ml^−1 protein
T1 construct: purchased Boehringer-Ingelheim (Actilyse, Alteplase)
Method: Plasmin (Pls) activity was assayed as described^7. Peptides and proteins that were tested for their stimulatory ability were regularly used at 100 μg ml^−1. […] Chromogenic substrate S-2251 (Chromogenix, Instrumentation Laboratory SpA, Milano, Italy) was used to measure Pls activity. Conversion of zymogen factor XII (#233490, Calbiochem, EMD Biosciences, Inc., San Diego, Calif.) to proteolytically active factor XII (factor XIIa) was assayed by measurement of the conversion of chromogenic substrate Chromozym-PK (Roche Diagnostics, Almere, The Netherlands) by kallikrein. Chromozym-PK was used at a concentration of 0.3 mM. Factor XII, human plasma prekallikrein (#529583, Calbiochem) and human plasma cofactor high-molecular weight kininogen (#422686, Calbiochem) were used at concentrations of 1 μg ml^−1. […] Assays were performed using microtiter plates (Costar, Cambridge, Mass., USA). Peptides and proteins were tested for their ability to activate factor XII. […] The conversion of Chromozym-PK was recorded kinetically at 37° C. for at least 60 minutes. […] With S-2222, activation of factor XII in plasma was measured, using 60% v/v plasma, diluted with substrate and H2O with or without potential cofactor. Furthermore, auto-activation of factor XII was measured by incubating 53 μg ml^−1 purified factor XII in 50 mM Tris-HCl buffer pH 7.5 with 1 mM EDTA and 0.001% v/v Triton-X100, with S-2222 and H2O with or without potential cofactor.
Formulated protein therapeutics were obtained from the local hospital pharmacy and were used as supplied by the manufacturers. […] Enhancement in fluorescence of ThT and Congo red was measured with all formulated protein therapeutics. […]
To prepare structurally altered ovalbumin (OVA) with amyloid cross-β structure conformation, purified OVA (Sigma, A-7641, lot 071k7094) was heated to 85° C. […] Native OVA (nOVA) and heat-denatured OVA (dOVA) were tested in the ThT fluorescence assay and in the Plg-activation assay. In the fluorescence assay and in the Plg-activation assay, 25 and 100 μg ml^−1 nOVA and dOVA were tested, respectively. […]

[1] = Thioflavin T fluorescence; assay type: physicochemical; details: 25 μg ml^−1
Method: Fluorescence of ThT-protein/peptide adducts was measured as follows. […] Fluorescence was measured at 485 nm upon excitation at 435 nm. Background signals from buffer, buffer with ThT and protein/peptide solution without ThT were subtracted from corresponding measurements with protein solution incubated with ThT. […] Fluorescence was measured in triplicate on a Hitachi F-4500 fluorescence spectrophotometer (Ltd., Tokyo, Japan).
Formulated protein therapeutics were obtained from the local hospital pharmacy and were used as supplied by the manufacturers. […] Lyophilized therapeutics were dissolved according to the manufacturers recommendations. […] Other protein therapeutics were only kept at 4° C., and assayed for the presence of cross-β structure conformation at shown time points. Enhancement in fluorescence of ThT and Congo red was measured with all formulated protein therapeutics. For this purpose, proteins were diluted to the indicated concentrations. […] Zinc-insulin was diluted tenfold in the activation assay, GH was diluted to a final concentration of 500 μg ml^−1. Activation of factor XII and prekallikrein by the therapeutics was tested in the chromogenic factor XII assay (see above). […] After coating, plates were blocked with Blocking Reagent (Roche Diagnostics, Almere, The Netherlands).
To prepare structurally altered ovalbumin (OVA) with amyloid cross-β structure conformation, purified OVA (Sigma, A-7641, lot 071k7094) was heated to 85° C. […] Native OVA (nOVA) and heat-denatured OVA (dOVA) were tested in the ThT fluorescence assay and in the Plg-activation assay. In the fluorescence assay and in the Plg-activation assay, 25 and 100 μg ml^−1 nOVA and dOVA were tested, respectively. […] In the ThT-fluorescence assay 25 μg ml^−1 nMSA and alkyl-MSA were tested, and in the Plg-activation assay 100 μg ml^−1 was tested. The presence of aggregates or fibrils was analyzed using TEM. […]
Protein therapeutics were obtained from the local hospital pharmacy and analyzed within the expiry limits as stated by the manufacturers.

Row | Substance | stimulation of tPA-mediated conversion of Plg to Pls (tPA) | ThT fluorescence enhancement of native and denatured proteins [1]
1 | alkylated MSA: reduced-alkylated murine serum albumin | differ in tPA activating potential | enhance ThT fluorescence to a similar extent
2 | heat-denatured MSA: murine serum albumin heat denatured at 85° C. | differ in tPA activating potential | enhance ThT fluorescence to a similar extent
3 | native MSA: native murine serum albumin | not reflected by stimulation of tPA activation | enhanced ThT fluorescence to some extent
